From patent US20150292030A1, “METHODS OF CHARACTERIZING AND TREATING MOLECULAR SUBSET OF MUSCLE-INVASIVE BLADDER CANCER” (BOARD OF REGENTS, THE UNIVERSITY OF TEXAS SYSTEM, priority 2012, published 2015)

System: UC5 and Scaber cells
Assay: Effects of gefitinib on EGFR and STAT3 phosphorylation and p63 expression
Assay type: cell-based, human

In the case of `COc1cc2ncnc(Nc3ccc(F)c(Cl)c3)c2cc1OCCCN1CCOCC1` [gefitinib], the STAT3 phosphorylation is reported as “inhibition” and the “expression of p63, P-cadherin, and cytokeratins 5 and 14” value is reported as “downregulation”.
